Assay results published in patent US4945171A, “Xanthene dyes having a fused (C) benzo ring” (Molecular Probes, Inc., priority 1987, dated 1990).

Experiment: absorption spectra (maxima and extinction coefficients) of benzo[c]xanthene dyes
Assay type: physicochemical
[1] = 40 mM potassium phosphate buffer, pH 9.0

Compound	Absorbance maximum (first) [1]	extinction coefficient (first maximum) [1]	Absorbance maximum (second) [1]	extinction coefficient (second maximum) [1]	ABSORPTION, ACID MAXIMA (second) (acid form, longer-wavelength maximum)
5'-(and-6')carboxy-3-hydroxy-10-methoxy-spiro[7H-benzo[c]xanthene-7,1'(3'H)-isobenzofuran]-3'-one [Compound 12]	542 nm	21,100 cm^-1 M^-1	–	–	–
5'-(and-6')carboxy-10-hydroxy-3-methoxy-spiro[7H-benzo[c]xanthene-7,1'(3'H)-isobenzofuran]-3'-one [Compound 13]	480 nm	23,500 cm^-1 M^-1	508 nm	26,200 cm^-1 M^-1	–
O=C1OC2(c3ccc(O)cc3Oc3c2ccc2cc(O)ccc32)c2ccccc21 (stereo not shown) [Compound 1, 3,10-dihydroxy-spiro[7H-benzo[c]xanthen-7,1'(3'H)-isobenzofuran]-3'-one]	–	–	–	–	508 NM
